Test results: PMC9768162, “Synthesis of macrocyclic nucleoside antibacterials and their interactions with MraY” (Nature Communications, 2022)

Sequences of proteins named here, by UniProt entry; tags and fusion partners are left off.
UniProt O66465, whole entry: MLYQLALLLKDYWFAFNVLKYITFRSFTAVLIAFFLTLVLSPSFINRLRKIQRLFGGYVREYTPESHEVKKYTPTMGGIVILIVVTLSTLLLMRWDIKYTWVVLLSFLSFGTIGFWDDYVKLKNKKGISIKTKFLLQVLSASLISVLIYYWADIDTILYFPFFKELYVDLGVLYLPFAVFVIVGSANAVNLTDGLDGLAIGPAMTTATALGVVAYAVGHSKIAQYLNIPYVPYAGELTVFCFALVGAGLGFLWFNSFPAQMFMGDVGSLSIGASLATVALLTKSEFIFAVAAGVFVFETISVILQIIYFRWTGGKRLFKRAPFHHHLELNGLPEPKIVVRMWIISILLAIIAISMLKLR

Molecular target: MraYAA (Aquifex aeolicus, UniProt O66465)
Test: UMP-Glo assay
Conditions: ratio of IC50 values, SPM-1 vs SPM-2

## CCCCCCCCCCCCCCCC(=O)O[C@@H]1[C@@H]2CN(C[C@@H]1O)[C@H](C(=O)O)[C@@H]([C@H]1O[C@@H](n3ccc(=O)[nH]c3=O)[C@H](O)[C@@H]1O)O[C@@H]1O[C@H](CN2)[C@@H](O)[C@H]1O [SPM-1]
  fold more potent than SPM-2 against MraYAA: 54 fold
